By UniProt entry, the sequences of proteins in these tests, tags left out. Residues count along the entry.
UniProt P43220, 24-463: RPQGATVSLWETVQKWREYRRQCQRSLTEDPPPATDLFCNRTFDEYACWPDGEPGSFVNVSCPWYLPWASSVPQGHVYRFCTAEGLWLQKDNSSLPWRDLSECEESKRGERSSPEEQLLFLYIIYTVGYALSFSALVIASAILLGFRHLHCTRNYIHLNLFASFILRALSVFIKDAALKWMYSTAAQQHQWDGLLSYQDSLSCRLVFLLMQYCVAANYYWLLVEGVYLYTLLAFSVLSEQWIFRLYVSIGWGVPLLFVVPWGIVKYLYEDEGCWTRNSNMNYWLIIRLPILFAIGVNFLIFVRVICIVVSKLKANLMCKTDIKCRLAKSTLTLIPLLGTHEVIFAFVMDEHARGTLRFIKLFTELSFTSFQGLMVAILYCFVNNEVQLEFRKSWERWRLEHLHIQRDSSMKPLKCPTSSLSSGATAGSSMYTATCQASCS
UniProt P47871, 26-477: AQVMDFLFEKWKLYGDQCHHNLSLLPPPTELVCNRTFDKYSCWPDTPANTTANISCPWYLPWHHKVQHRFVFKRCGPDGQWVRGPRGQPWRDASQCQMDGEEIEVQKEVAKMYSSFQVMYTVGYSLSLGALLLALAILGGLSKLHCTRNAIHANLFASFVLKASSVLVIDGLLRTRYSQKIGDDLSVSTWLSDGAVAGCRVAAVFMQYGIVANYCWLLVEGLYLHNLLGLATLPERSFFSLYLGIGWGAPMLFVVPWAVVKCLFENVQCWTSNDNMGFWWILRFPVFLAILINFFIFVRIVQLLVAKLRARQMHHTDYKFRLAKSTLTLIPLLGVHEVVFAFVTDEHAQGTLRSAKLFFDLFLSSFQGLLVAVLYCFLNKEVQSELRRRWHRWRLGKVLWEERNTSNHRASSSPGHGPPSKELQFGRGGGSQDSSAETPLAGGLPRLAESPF

According to US20250353891A1 (MEDIMMUNE LIMITED, priority 2022, published 2025):

Key:
[1] = biological target: human GLP-1 receptor (hGLP-1R) (Homo sapiens, UniProt P43220); test: cAMP production (HTRF) in CHO cells expressing hGLP-1R; format: cell-based; set-up: expressed in transfected cells; conditions: for % Relative Potency Ratio: % GLP-1R activity relative to GLP-1 / % GlucR activity relative to glucagon
Method: (§1) Cells were re-suspended in assay buffer at a batch-dependent optimized concentration (typically hGLP-1R cells at 1×10^5 cells/mL, hGCGR cells at 2×10^5 cells/mL).
(§2) Cells were added to the assay plate using a multidrop dispenser and incubated at room temperature for 30 minutes before measuring the cAMP level using a cAMP dynamic 2 homogeneous time resolved Fluorescence (HTRF) kit (Cisbio Bioassays #62AM4PEJ) following the two-step protocol as per manufacturer's recommendations. In brief, anti-cAMP cryptate (donor fluorophore) and cAMP-d2 (acceptor fluorophore) were made up separately by diluting each 1 in 20 in conjugate and lysis buffer provided in the kit. Anti-CAMP cryptate was added to all wells of the assay plate, followed by cAMP-d2 added to all wells except non-specific binding (NSB) wells (to which conjugate and lysis buffer was added).
(§3) Data was transformed to % Delta F as described in the manufacturer's guidelines and analyzed by 4-parameter logistic fit to determine EC50 values.

[2] = biological target: human glucagon receptor (hGCGR) (Homo sapiens, UniProt P47871); test: cAMP production (HTRF) in CHO cells expressing hGCGR; format: cell-based; set-up: expressed in transfected cells; conditions: hGluc-R EC50 (pM), 0.1% BSA, geometric mean
Method: as §1, §2, §3

| SMILES | % Relative Potency Ratio [1] | EC50 ([1]; hGLP-1R EC50 (pM)) [pM] | EC50 [2] [pM] |
| --- | --- | --- | --- |
| CC[C@H](C)[C@H](NC(=O)[C@H](Cc1c[nH]c2ccccc12)NC(=O)[C@H](CCCCNC(=O)COCCOCCNC(=O)COCCOCCNC(=O)CC[C@H](NC(=O)CCCCCCCCCCCCCCCCC(=O)O)C(=O)O)NC(=O)[C@@H](NC(=O)[C@H](Cc1ccccc1)NC(=O)[C@H](CC(=O)O)NC(=O)[C@H](CCC(N)=O)NC(=O)[C@H](C)NC(=O)[C@H](C)NC(=O)[C@H](CCC(N)=O)NC(=O)[C@H](CO)NC(=O)[C@H](CC(=O)O)NC(=O)[C@H](CC(C)C)NC(=O)[C@](C)(Cc1ccccc1)NC(=O)[C@H](CCCCN)NC(=O)[C@H](CO)NC(=O)[C@@H](NC(=O)[C@H](CC(=O)O)NC(=O)[C@H](CO)NC(=O)[C@@H](NC(=O)[C@H](Cc1ccccc1)NC(=O)[C@@H](NC(=O)CNC(=O)[C@H](Cc1c[nH]cn1)NC(=O)C(C)(C)NC(=O)[C@@H](N)Cc1c[nH]cn1)[C@@H](C)O)[C@@H](C)O)C(C)C)C(C)C)C(=O)N[C@@H](C)C(=O)N[C@@H](CC(N)=O)C(=O)N[C@H](C(N)=O)[C@@H](C)O [Peptide 345] | 0.1 | 2860 | 168 |
| CCCCCCCCCCCCCCCCCC(=O)N[C@@H](CCC(=O)N[C@@H](CCC(=O)NCCOCCOCCC(=O)NCCOCCOCCC(=O)NCCCC[C@H](NC(=O)[C@H](CC(=O)O)NC(=O)[C@H](CO)NC(=O)[C@@H](NC(=O)[C@](C)(Cc1ccccc1)NC(=O)[C@H](CO)NC(=O)CNC(=O)[C@H](CCC(N)=O)NC(=O)[C@H](CO)NC(=O)[C@@H](N)Cc1c[nH]cn1)[C@@H](C)O)C(=O)N[C@@H](CO)C(=O)N[C@@H](CCCCN)C(=O)N[C@H](C(=O)N[C@@H](CC(C)C)C(=O)N[C@@H](CC(=O)O)C(=O)N[C@@H](CO)C(=O)N[C@H](C(=O)N[C@@H](C)C(=O)N[C@@H](C)C(=O)N[C@@H](CCC(N)=O)C(=O)N[C@@H](CC(=O)O)C(=O)N[C@@](C)(Cc1ccccc1)C(=O)N[C@H](C(=O)N[C@@H](CCC(=O)O)C(=O)N[C@@H](Cc1c[nH]cn1)C(=O)N[C@@H](CC(C)C)C(=O)N[C@@H](C)C(=O)N[C@@H](CC(N)=O)C(=O)N[C@H](C(N)=O)[C@@H](C)O)C(C)C)C(C)(C)CCNC(=N)N)C(c1ccccc1)c1ccccc1)C(=O)O)C(=O)O [Peptide 397] | 3.7 | – | – |
| CCCCCCCCCCCCCCCCCC(=O)N[C@@H](CCC(=O)N[C@@H](CCC(=O)NCCOCCOCCC(=O)NCCOCCOCCC(=O)NCCCC[C@H](NC(=O)[C@H](CC(=O)O)NC(=O)[C@H](CO)NC(=O)[C@@H](NC(=O)[C@](C)(Cc1ccccc1)NC(=O)[C@H](CO)NC(=O)CNC(=O)[C@H](CCC(N)=O)NC(=O)[C@H](CO)NC(=O)[C@@H](N)Cc1c[nH]cn1)[C@@H](C)O)C(=O)N[C@@H](CO)C(=O)N[C@@H](CCCCN)C(=O)N[C@H](C(=O)N[C@@H](CC(C)C)C(=O)N[C@@H](CC(=O)O)C(=O)N[C@@H](CO)C(=O)N[C@H](C(=O)N[C@@H](C)C(=O)N[C@@H](C)C(=O)N[C@@H](CCC(N)=O)C(=O)N[C@@H](CC(=O)O)C(=O)N[C@@](C)(Cc1ccccc1)C(=O)N[C@H](C(=O)N[C@@H](CCC(=O)O)C(=O)N[C@@H](Cc1c[nH]cn1)C(=O)N[C@@H](CC(C)C)C(=O)N[C@@H](C)C(=O)N[C@@H](CC(N)=O)C(=O)N[C@H](C(N)=O)[C@@H](C)O)C(C)C)C(C)(C)CCNC(=N)N)C(c1ccccc1)c1ccccc1)C(=O)O)C(=O)O [Peptide 398, HSQGS(αMePhe)TSDK((PEG)2-(PEG)2-γE-γE-Stearoyl) 10SK(Dip)LDS(β-dimethylArg)AAQD(αMePhe)VEHLANT-amide] | 1.5 | – | – |
